The source of these data is patent publication US6703364B2, “Thrombin generation inhibitors” (Cleveland State University, priority 2001, dated 2004).

Chains of the proteins cited; added tags and fusions are not shown. Residues count along the entry.
UniProt P00742, 41-179 limits assumed: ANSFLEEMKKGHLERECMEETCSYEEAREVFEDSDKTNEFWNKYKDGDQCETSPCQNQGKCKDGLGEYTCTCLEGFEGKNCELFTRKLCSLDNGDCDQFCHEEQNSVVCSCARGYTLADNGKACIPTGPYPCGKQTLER
UniProt P00742, 235-488 limits assumed: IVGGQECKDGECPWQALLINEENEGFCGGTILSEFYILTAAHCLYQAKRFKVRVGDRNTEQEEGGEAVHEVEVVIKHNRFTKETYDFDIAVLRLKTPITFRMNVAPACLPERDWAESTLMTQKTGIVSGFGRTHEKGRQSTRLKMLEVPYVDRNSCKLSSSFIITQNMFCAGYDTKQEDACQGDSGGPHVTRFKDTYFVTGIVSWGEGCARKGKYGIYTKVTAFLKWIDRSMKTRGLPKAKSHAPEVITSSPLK

The target in assay [1] is T1, prothrombinase (Homo sapiens, UniProt P00742).
T1 construct: purchased Haematologic Technologies, Inc
The assay is described as follows: fluorescent prothrombinase assay (DAPA; conversion of prothrombin to α-thrombin). Conditions: DAPA fluorescence, series of peptide concentrations, read-out: IC50 for inhibition of prothrombinase activity. It is filed as biochemical. From the text:
The assay used to obtain the data shown in FIG. 4 is a fluorescent assay that is described in Example 3 of this document. Briefly, the fluorescent assay, in contrast to the visual assay, measures only one reaction of the many necessary for formation of a blood clot. The fluorescent assay measures conversion of prothrombin to a-thrombin as catalyzed by prothrombinase. A fluorescent assay reaction contains prothrombin, factor Xa, factor Va and a preparation of phospholipid vesicles, which facilitate assembly of the aforementioned components into a functioning prothrombinase enzyme.
Each fluorescent assay also contains a fluorescent compound called dansylarginine-N-(3-ethyl-1,5-pentanediyl)amide (or DAPA for short). DAPA specifically binds to α-thrombin, the product of the prothrombinase reaction. Binding of DAPA by α-thrombin increases the fluorescence intensity of DAPA. In the case where no peptide inhibitor of prothrombinase is present in the reaction, high levels of α-thrombin are produced in the reaction, and DAPA fluorescence is high. When a peptide inhibitor of prothrombinase is present, little α-thrombin is produced in the reaction, and DAPA fluorescence is low. Therefore, by measuring DAPA fluorescence, the inhibitory ability of each peptide is determined. […]
Activities of prothrombinase, as measured by DAPA fluorescence, are shown on the y-axis of FIG. 4. […] DAPA fluorescence in the absence of both peptide and factor Va (the bar labeled “APXa” in FIG. 4) is 9% of the APXa/Va activity, and is background fluorescence.
The fluorescence assay specifically measured the conversion of prothrombin to α-thrombin, one essential reaction of the many required for blood clotting (see FIG. 1). […]
The fluorescent properties of DAPA were contributed by the dansyl moiety. When bound to α-thrombin, the fluorescence intensity and lifetime of the dansyl moiety were increased three-fold. Therefore, in this assay, when prothrombinase activity was uninhibited, α-thrombin was produced (see FIG. 1) and DAPA fluorescence was high. […]

Assay [2] deals with T1, prothrombinase. The assay is described as follows: visual blood clotting assay (factor V-depleted plasma, thromboplastin, factor Va). In kind it is biochemical. As to conditions: clotting time without peptide (about 25 seconds) = 100% activity, read-out: IC50 for inhibition of prothrombinase clotting activity. An excerpt: FIG. 3 is a graph showing inhibition of prothrombinase activity by the 42 amino acid peptide NR42, encompassing amino acids 307-348 of the human factor Va heavy chain (SEQ ID NO. 2). The assay used to obtain the data shown in FIG. 3 is a visual blood clotting assay that is described in detail in Example 2 of this document.
Briefly, in the visual blood clotting assay, reactions are set up that contain all components of the blood necessary to form a blood clot and the time required for formation of a visual blood clot is recorded. To test inhibitory activity of the NR42 peptide, different concentrations of NR42 are added to a series of such reactions. […] The time required for an observable blood clot to form in the absence of NR42 peptide (0 μM peptide on the x-axis) is designated as 100% prothrombinase activity, as shown on the y-axis of FIG. 3. Inhibition of blood clotting by […] results in longer clotting times. Longer clotting times are shown on the y-axis of the graph as decreased prothrombinase activity. […]
Factor Va was purchased or, alternatively was produced by treatment of 50 nM of purified factor V (Haematologic Technologies, Inc.) with 1 nM α-thrombin for 10 min followed by the addition of 2 nM hirudin. […] This time was arbitrarily determined to be 100% activity. […]

With `CC(C)C[C@H](N)C(=O)N[C@@H](CC(=O)O)C(=O)N[C@@H](CC(N)=O)C(=O)N[C@@H](Cc1ccccc1)C(=O)N[C@@H](CO)C(=O)O` [Peptide L5S, LDNFS], the IC50 on prothrombinase [1] is about 50 µM.

Regarding `C[C@H](NC(=O)[C@H](Cc1ccccc1)NC(=O)[C@H](Cc1ccc(O)cc1)NC(=O)[C@@H](N)CCC(=O)O)C(=O)N[C@@H](CCC(=O)O)C(=O)O` [EYFAE], the IC50 on prothrombinase [1] was in the range of 10 to 15 µM. As for `CC[C@H](C)[C@H](NC(=O)[C@H](Cc1ccccc1)NC(=O)[C@H](Cc1ccc(O)cc1)NC(=O)[C@H](CCC(=O)O)NC(=O)[C@H](Cc1c[nH]c2ccccc12)NC(=O)[C@H](CCCNC(=N)N)NC(=O)[C@H](CCCCN)NC(=O)[C@H](CCSC)NC(=O)[C@H](Cc1c[nH]cn1)NC(=O)[C@H](CCCNC(=N)N)NC(=O)[C@H](CCCNC(=N)N)NC(=O)[C@H](CCC(N)=O)NC(=O)[C@H](CCC(=O)O)NC(=O)[C@H](CCCNC(=N)N)NC(=O)[C@@H](NC(=O)[C@@H](NC(=O)[C@H](CCCCN)NC(=O)[C@H](CCCCN)NC(=O)[C@H](CC(C)C)NC(=O)[C@@H](N)CC(N)=O)[C@@H](C)CC)[C@@H](C)O)C(=O)N[C@@H](C)C(=O)N[C@@H](C)C(=O)N[C@@H](CCC(=O)O)C(=O)N[C@@H](CCC(=O)O)C(=O)N[C@H](C(=O)N[C@H](C(=O)N[C@@H](Cc1c[nH]c2ccccc12)C(=O)N[C@@H](CC(=O)O)C(=O)N[C@@H](Cc1ccc(O)cc1)C(=O)N[C@@H](C)C(=O)N1CCC[C@H]1C(=O)N[C@H](C(=O)N[C@H](C(=O)N1CCC[C@H]1C(=O)N[C@@H](C)C(=O)N[C@@H](CC(N)=O)C(=O)N[C@@H](CCSC)C(=O)N[C@@H](CC(=O)O)C(=O)N[C@@H](CCCCN)C(=O)N[C@@H](CCCCN)C(=O)N[C@@H](Cc1ccc(O)cc1)C(=O)N[C@@H](CCCNC(=N)N)C(=O)O)[C@@H](C)CC)C(C)C)[C@@H](C)CC)C(C)C` [NR42], the IC50 at prothrombinase [2] is about 1.3 µM; at prothrombinase [1], about 0.5 µM.

By IC50 is commonly meant the concentration needed to halve the response being measured.
